Molecular target: calmodulin (unlabeled, as used in the gel mobility-shift and kinase assays of Example 2), P04353

B1: lily CCaMK (calcium/calmodulin-dependent protein kinase), wild-type (1-520), recombinant, expressed in E. coli (protein)
chain: MSRHESRKLSDDYEVVDVLGKGGFSVVRRGISKSRGKNNDVAIKTLRRYGYTLPGAQRSQPGQRGLSPLGMPTLKQVSVSDALLTNEILVMRRIVEDVSPHPNVIHLHDVYEDANGVHLVLELCSGGELFDRIVAQDRYSESEAAEVVQQIASGLAALHKSTIIHRDLKPENCLFLNQEKRSTLKIMDFGLSSVEDFTDPIVALFGSIDYVSPEALSQRQVSSASDMWSLGVILYILLSGCPPFHAPSNREKQQRILAGDFSFEEHTWKTITSSAKDLISSLLSVDPYKRPTANDLLKHPWVIGDSAKQELIEPEVVSRLRSFNARRKLRAAAIASVLSSKVLLRTKKLKNLLGSHDMKSEELENLRAHFKRICANGDNATLPEFEEVLKAMKMNSLIPLAPRVFDLFDNNRDGTIDMREILCGLSNLRNSQGDDALQLCFQMYDADRSGCISKEELASMLRALPEDCVPADITEPGKLDEIFDQMDANSDGVVTFDEFKAAMQRDSSLQDVVLSSLRTI
Ca2+-dependent autophosphorylation of CCaMK with 1 µM calmodulin: inhibited to basal levels (0.061 mol 32P/mol of CCaMK)
calmodulin concentration at which kinase activity saturates, histone IIAS phosphorylation: around 1.0 µM
concentration of calmodulin required for half-maximal activity (Ka), histone IIAS phosphorylation: approximately 0.2 µM

Reference: patent US6362395
